Experimental data from ChEMBL document CHEMBL5053503 (2021).

Sequences of proteins named here, by UniProt entry; tags and fusion partners are left off. A change or cut given only in a name is not applied to a line headed by its entry.
UniProt P28335: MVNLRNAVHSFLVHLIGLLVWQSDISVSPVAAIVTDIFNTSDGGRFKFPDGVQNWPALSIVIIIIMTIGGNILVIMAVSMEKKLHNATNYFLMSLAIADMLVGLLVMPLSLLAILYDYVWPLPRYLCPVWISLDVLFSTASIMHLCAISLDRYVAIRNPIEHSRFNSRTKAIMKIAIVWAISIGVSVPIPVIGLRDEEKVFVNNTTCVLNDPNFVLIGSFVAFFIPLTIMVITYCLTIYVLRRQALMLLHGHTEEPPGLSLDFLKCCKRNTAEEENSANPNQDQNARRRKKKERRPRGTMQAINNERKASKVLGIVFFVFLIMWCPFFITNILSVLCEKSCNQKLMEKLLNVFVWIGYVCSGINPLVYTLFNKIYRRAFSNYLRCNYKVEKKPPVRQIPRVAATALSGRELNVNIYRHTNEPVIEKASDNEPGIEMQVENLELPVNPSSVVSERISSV

Target: 5-hydroxytryptamine receptor 2C (Homo sapiens, UniProt P28335)
Assay: biochemical

**Q.** For `Cn1ccc2cc3c(cc21)CCN3C(=O)Nc1cccnc1`, which Ki is on record?
**A.** 2.8 nM
